This note sets out measurements from PubChem BioAssay (NCI).

This assay concerns MDA-MB-468 breast. The assay is described as follows: NCI tumour cell line growth inhibition, 48 h.

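Results reflect a 48-hour exposure of cells in 96-well plates to compound at five concentrations. Here, GI50 denotes the concentration required for 50% inhibition of growth. TGI marks complete inhibition of growth.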

For the compound `CSc1ccc(Nc2c([N+](=O)[O-])cc([N+](=O)[O-])cc2[N+](=O)[O-])cc1`, the GI50 was 1.57 µM and the TGI worked out at 4.74 µM.
